For one test, the target named is EGFR (L858R/T790M) (Homo sapiens (Human), UniProt P00533, L858R/T790M). As to the kind of experiment: Inhibitory activity for EGFR (L858R/T790M) kinase. To be noted: read-out: EGFR(L858R/T790M) (IC50); ATP 5 μM. As to the method: (§1) A 50 ng/μL EGFR (L858R/T790M, Carna) stock solution was diluted with a kinase buffer (50 mM HEPES, 10 mM MgCl2, 2 mM DTT, 1 mM EGTA, 0.01% Tween 20), and 6 μL of 1.67× working solution at 0.004175 ng/μL (final concentration: 0.0025 ng/μL) was added to each well. Different compounds dissolved in DMSO were added to wells using a nanoliter pipettor, resulting in the final concentrations of the compounds of 10 nM to 0.0024 nM (4-fold gradient, 7 concentrations in total), and blank control wells (without enzyme) and negative control wells (with enzyme, plus vehicle DMSO) were set, 2 replicate wells for each concentration. After enzyme was reacted with the compound or vehicle for 30 min, 5×ATP at 25 μM (final concentration: 5 μM, Sigma) prepared with a kinase buffer was mixed with 5× substrate at 0.5 μM (final concentration: 0.1 μM, ULight-poly GT, PerkinElmer) at a ratio of 1:1 (v:v), and the mixture was added to each well at 4 μL/well. After being sealed with a film, the plate was incubated at room temperature for 2 h, and then 5 μL of 4×EDTA at 40 mM (final concentration: 10 mM) was added to each well. After the plate was incubated for 5 min at room temperature, 5 μL of 4× detection reagent at 8 nM (final concentration: 2 nM, Eu-anti-phospho-tyrosine antibody, PerkinElmer) was added to each well. After being incubated at room temperature for 1 h, the plate was read using a PerkinElmer Envision multi-mode microplate reader (excitation: 320 nm, emission: 665 nm), and IC50 was calculated by four-parameter fitting.

By UniProt entry, the sequences of proteins in these tests, tags left out. Where a name states a change or a piece, a line headed by the entry shows the natural chain unless it says otherwise. Chains listed by the source or under a name are the forms on record and can include a tag or linker. Residues count along the entry.
UniProt P00533, 25-1210 T790M/L858R limits assumed: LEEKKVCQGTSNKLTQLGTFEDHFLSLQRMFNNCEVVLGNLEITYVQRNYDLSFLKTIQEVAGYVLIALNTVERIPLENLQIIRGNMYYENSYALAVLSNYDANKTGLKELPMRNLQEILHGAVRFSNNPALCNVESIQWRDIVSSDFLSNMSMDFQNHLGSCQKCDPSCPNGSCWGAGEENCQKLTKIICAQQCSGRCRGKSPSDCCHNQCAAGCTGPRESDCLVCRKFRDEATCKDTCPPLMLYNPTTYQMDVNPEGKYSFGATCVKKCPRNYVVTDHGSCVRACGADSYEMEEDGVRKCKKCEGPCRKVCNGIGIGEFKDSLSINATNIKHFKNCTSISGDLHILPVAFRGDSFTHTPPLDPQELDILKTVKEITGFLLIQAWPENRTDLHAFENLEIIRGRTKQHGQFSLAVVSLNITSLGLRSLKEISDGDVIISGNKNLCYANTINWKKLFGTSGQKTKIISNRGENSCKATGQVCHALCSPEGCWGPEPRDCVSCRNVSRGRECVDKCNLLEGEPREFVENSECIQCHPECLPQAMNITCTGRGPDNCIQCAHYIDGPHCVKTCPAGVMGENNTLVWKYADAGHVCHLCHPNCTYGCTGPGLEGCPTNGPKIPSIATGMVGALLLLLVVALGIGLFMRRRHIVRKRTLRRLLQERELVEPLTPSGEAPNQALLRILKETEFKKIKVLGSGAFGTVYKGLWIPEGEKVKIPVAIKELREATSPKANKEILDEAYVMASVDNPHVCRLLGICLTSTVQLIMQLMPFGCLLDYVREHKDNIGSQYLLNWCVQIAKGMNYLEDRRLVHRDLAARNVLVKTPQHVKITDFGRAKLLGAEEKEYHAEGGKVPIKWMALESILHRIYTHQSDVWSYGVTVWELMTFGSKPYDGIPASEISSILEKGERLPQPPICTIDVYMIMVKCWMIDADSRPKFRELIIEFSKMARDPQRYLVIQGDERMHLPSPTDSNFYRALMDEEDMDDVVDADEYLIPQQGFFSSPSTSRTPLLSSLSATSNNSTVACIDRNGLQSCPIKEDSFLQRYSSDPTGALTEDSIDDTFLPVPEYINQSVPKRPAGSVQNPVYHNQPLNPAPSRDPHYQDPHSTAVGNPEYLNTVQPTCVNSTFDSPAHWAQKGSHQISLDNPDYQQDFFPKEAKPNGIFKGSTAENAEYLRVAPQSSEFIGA
UniProt P00533, 25-1210 T790M/C797S/L858R limits assumed: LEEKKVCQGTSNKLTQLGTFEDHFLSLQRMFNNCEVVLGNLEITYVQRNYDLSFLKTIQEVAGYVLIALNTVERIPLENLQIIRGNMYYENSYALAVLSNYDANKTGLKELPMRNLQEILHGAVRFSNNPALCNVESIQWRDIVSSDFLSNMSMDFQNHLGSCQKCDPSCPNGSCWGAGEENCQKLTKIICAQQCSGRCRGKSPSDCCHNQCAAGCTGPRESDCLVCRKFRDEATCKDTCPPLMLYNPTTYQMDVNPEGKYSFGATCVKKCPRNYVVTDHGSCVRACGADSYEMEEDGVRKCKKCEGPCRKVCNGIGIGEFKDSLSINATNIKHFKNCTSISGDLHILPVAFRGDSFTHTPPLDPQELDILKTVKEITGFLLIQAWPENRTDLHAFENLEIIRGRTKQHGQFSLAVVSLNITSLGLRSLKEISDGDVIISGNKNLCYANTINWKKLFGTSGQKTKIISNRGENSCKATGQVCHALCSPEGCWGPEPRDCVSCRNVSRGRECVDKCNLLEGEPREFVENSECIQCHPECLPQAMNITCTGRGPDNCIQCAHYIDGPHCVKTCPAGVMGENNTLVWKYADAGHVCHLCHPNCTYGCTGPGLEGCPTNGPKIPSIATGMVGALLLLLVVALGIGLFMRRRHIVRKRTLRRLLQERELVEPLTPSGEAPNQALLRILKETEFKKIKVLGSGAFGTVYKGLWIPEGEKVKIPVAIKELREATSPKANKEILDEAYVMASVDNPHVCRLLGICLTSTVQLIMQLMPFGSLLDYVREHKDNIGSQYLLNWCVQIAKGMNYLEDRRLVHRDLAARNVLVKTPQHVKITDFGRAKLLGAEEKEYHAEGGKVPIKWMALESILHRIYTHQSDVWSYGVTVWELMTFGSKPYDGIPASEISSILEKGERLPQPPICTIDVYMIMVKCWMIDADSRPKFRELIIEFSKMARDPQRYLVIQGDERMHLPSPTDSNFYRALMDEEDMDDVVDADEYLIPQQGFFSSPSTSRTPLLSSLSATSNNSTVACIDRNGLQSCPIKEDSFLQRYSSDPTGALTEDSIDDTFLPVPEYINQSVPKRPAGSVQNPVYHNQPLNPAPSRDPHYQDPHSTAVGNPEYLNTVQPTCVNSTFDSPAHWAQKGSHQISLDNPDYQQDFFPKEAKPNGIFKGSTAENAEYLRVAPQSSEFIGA
UniProt P00533, with tags, fused parts or gaps limits assumed, stated change not applied: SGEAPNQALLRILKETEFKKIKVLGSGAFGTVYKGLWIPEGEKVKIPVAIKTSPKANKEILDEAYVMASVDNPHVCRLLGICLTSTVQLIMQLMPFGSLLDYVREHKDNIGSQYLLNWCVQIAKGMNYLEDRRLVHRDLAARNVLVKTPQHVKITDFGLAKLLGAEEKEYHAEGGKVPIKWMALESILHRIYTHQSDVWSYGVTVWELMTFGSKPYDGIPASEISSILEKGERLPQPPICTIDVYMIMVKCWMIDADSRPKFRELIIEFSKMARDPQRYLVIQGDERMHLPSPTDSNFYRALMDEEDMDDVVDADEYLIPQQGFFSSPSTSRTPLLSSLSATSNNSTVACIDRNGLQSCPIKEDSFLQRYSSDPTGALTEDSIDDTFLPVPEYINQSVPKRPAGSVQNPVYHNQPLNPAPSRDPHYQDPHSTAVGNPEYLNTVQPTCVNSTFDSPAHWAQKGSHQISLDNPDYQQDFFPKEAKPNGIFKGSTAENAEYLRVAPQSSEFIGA

The target in the next test is EGFR (L858R/T790M/C797S) (Homo sapiens (Human), UniProt P00533, C797S/L858R/T790M). As to the kind of experiment: Inhibitory activity for EGFR (L858R/T790M/C797S) kinase. Particulars: read-out: EGFR(L858R/T790M/C797S) (IC50); ATP 5 μM. As to the method: as §1, with “(L858R/T790M/C797S, BPS)” for “(L858R/T790M, Carna)”, “0.00167” for “0.004175”, “0.001” for “0.0025”
Test [1] deals with EGFR (d746-750/T790M/C797S) (Homo sapiens (Human), UniProt P00533, C797S/DEL746-750/T790M). As to the kind of experiment: Inhibitory activity for EGFR (d746-750/T790M/C797S) kinase. To be noted: read-out: EGFR(d19/T790M/C797S) (IC50); ATP 5 μM. As for the experimental part:
1.5 Screening for Inhibitory Activity for EGFR (d746-750/T790M/C797S) Kinase
A 50 ng/μL EGFR (d746-750/T790M/C797S, BPS) stock solution was diluted with a kinase buffer (50 mM HEPES, 10 mM MgCl2, 2 mM DTT, 1 mM EGTA, 0.01% Tween 20), and 6 μL of 1.67× working solution at 0.05 ng/μL (final concentration: 0.03 ng/μL) was added to each well. Different compounds dissolved in DMSO were added to the wells using a nanoliter pipettor, resulting in the final concentrations of the compounds of 10 nM to 0.0024 nM (4-fold gradient for 7 concentrations in total), and blank control wells (without enzyme) and negative control wells (with enzyme, plus vehicle DMSO) were set, 2 replicate wells for each concentration. After enzyme was reacted with the compound or vehicle for 30 min, 5×ATP at 25 μM (final concentration: 5 μM, Sigma) prepared with a kinase buffer was mixed with 5× substrate at 0.5 μM (final concentration: 0.1 μM, ULight-poly GT, PerkinElmer) at a ratio of 1:1 (v:v), and the mixture was added to each well at 4 μL/well. After being sealed with a film, the plate was incubated at room temperature for 2 h, and then 5 μL of 4×EDTA at 40 mM (final concentration: 10 mM) was added to each well. After the plate was incubated for 5 min at room temperature, 5 μL of 4× detection reagent at 8 nM (final concentration: 2 nM, Eu-anti-phospho-tyrosine antibody, PerkinElmer) was added to each well. After being incubated at room temperature for 1 h, the plate was read using a PerkinElmer Envision multi-mode microplate reader (excitation: 320 nm, emission: 665 nm), and IC50 was calculated by four-parameter fitting.

Test [2] has as its system BAF3-EGFR (L858R/T790M/C797S) cells. The test is described as follows: Inhibition of proliferation of BAF3-EGFR (L858R/T790M/C797S) cells, CCK-8. Particulars: read-out: BAF3(EGFR T790M L858R C797S) cell inhibitory activity IC50, 72 h. As to the method: A flask of EGFR (L858R/T790M/C797S) cells in the logarithmic growth phase and good conditions was taken, and the cells were collected and added to a centrifuge tube. 20 μL of cells were taken and counted, and the required number of cells (mL) was pipetted and centrifuged at 1200 rpm for 3 min. The supernatant was discarded, and an appropriate amount of plating medium (RPMI medium+10% FBS) was added to adjust the cell density to 1.5×10^5 cells/mL. The cells were seeded on a 96-well plate at 100 μL/well using a multi-channel pipette and cultured in a cell incubator at 37° C., 5% CO2 with saturated humidity. After overnight incubation, compounds were loaded using a nanoliter pipettor, 2 duplicate wells were set for each concentration, and cells without compound added were used as negative controls. After 72 h, CCK-8 was added at 10 μL/well for incubation for 2 h, then absorbance was measured at 450 nm with an Envision plate reader, and inhibition rate was calculated.
(§2) Inhibition rate (%)=(mean value of negative control group-mean value of experimental group)/(mean value of negative control group−mean value of blank group)×100%.
(§3) A dose-response curve was fitted by four-parameter analysis, with the logarithm of compound concentration serving as abscissa and inhibition rate serving as ordinate, such that IC50 was calculated.

The subject of test [3] is PC-9 EGFR-Del19-T790M-C797S cells. As to the kind of experiment: Inhibition of proliferation of PC-9-EGFR (Del19 T790M C797S) cells, CCK-8. To be noted: read-out: PC-9-EGFR (Del19 T790M C797S) cell inhibitory activity IC50, 72 h. As for the experimental part:
PC-9 EGFR-Del19-T790M-C797S cells in the logarithmic growth phase and good conditions were taken, washed with PBS, digested with pancreatin, terminated with a complete medium, collected and added to a centrifuge tube, adjusted to a cell density of 2×10^4 cells/mL, and seeded in a 96-well plate (100 μL/well). Meanwhile, compounds were loaded using a nanoliter pipettor resulting in the final concentrations of the compounds of 1000 nM-0.06 nM, and a control was set, replicate wells for each concentration. After 72 h of incubation in the cell incubator, the assay reagent CCK-8 (manufacturer: Dojindo Laboratories, Beijing; 10 μL/well) was added. After 2 h of incubation in the cell incubator, absorbance was measured at 450 nm on a PerkinElmer Envision microplate reader, and the inhibition rate was calculated.
as §2, §3

On to `[2H]C([2H])([2H])N(C1CCC(Nc2ccc3c(c2)NC2=NC(=O)c4cc(C)nc(c4)-c4cnn(C)c4OCCC[C@@H](C4CC4)CN23)CC1)C([2H])([2H])[2H]` (single isomer, unassigned), for which the IC50 at EGFR (L858R/T790M) was 0.081 nM; at EGFR (L858R/T790M/C797S), 0.12 nM; in test [1], 0.076 nM; in test [2], under 5 nM; in test [3], under 50 nM.

These data come from patent publication US20250034165A1, “COMPOUND CONTAINING CYCLOALKYL OR HALOALKYL” (CHIA TAI TIANQING PHARMACEUTICAL GROUP CO., LTD., priority 2021, published 2025).
